Biological target: T1, CDK9/CycT1 (Homo sapiens, UniProt P50750)
T1 construct: purchased Carna Biosciences
Test: Kinase panel profiling at 1 µmol/L (mobility shift assay, Carna)
Format: biochemical
Details: 1 µmol/L of BTK inhibitor

Sequences of proteins named here, by UniProt entry; tags and fusion partners are left off.
UniProt P50750, whole entry: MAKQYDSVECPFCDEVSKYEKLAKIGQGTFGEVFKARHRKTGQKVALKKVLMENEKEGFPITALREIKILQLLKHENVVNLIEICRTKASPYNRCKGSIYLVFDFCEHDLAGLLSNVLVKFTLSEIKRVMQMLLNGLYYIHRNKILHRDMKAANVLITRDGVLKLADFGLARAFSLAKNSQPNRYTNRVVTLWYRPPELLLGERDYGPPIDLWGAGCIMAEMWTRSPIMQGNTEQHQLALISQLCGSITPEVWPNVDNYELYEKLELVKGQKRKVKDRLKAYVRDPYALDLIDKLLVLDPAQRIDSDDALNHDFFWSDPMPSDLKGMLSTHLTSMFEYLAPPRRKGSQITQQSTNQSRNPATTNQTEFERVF

C=CC(=O)N1CCC[C@@H](n2nc(-c3ccc(Oc4ccccc4)cc3)c3c(N)ncnc32)C1 [ibrutinib]
Percentage inhibition of kinase enzyme activity: 3.45%
